Reference: patent US9034862B2, “Compositions and methods for the treatment of cancer” (priority 2011, dated 2015)

Tests used:
[1] = tested on: Normal lung fibroblasts (MRC5) and cancerous lung (A549) cells; assay: Selective killing of cancer cells, MRC5 vs A549 (MTT); type: cell-based, human; settings: 72 h
Experimental: Solutions of the platinum compounds were freshly prepared in sterile PBS before use and their concentrations quantitated by atomic absorption spectroscopy. […] The cells were then treated with 20 μL of 3-(4,5-dimethylthiazol-2-yl)-2,5-diphenyltetrazolium bromide (MTT) (5 mg/mL in PBS) and incubated for 4 h. The medium was removed, 100 μL of DMSO was added to the cells, and the absorbance of the purple formazan was recorded at 560 nm using a BioTek Synergy HT multi-detection microplate plate reader. Each condition was performed in triplicate and three independent experiments were carried out for each cell line.

[2] = tested on: GLuc expression in HT29 cells; assay: Transcription assay, globally platinated pGLuc, HT29; type: cell-based, human
Experimental: Transfection of transcription probes into A549 and HT29 cells with the pGLuc plasmid was carried out using liposomal transfecting agents. Determination of expression levels was tested by Luciferase assays monitored by a luminometer (J. Am. Chem. Soc. 2010, 132, 7429-7435). A549 cells were plated in 96-well plates at 2,000 cells/well and HT29 cells were plated in 96-well plates at 6,000 cells/well. After 48 h incubation (at ˜30% confluence), cells were transfected with 50 ng of platinated plasmids in 25 μL Opti-MEM and 0.125 μL Lipofectamine 2000, and subsequently 50 μL of antibiotics-free DMEM supplemented with 10% FBS. After 2 h, the cells were washed with medium and 100 μL of fresh medium was added. The experiment was carried out in quadruplicate.
GLuc activity was monitored using a luminescence plate reader (Synergy 2, BioTek, Winooski, Vt., USA). A 10 μL volume of medium at different time points (12, 24, 36, 48, 60 h) was transferred into opaque white 96-well plates, and 25 μL of GLuc assay solution (10 μM colelenterazine (NanoLight Technologies, Pinetop, Ariz., USA) in 2.5 mM acidified methanol (100 mM HCl), buffer (10 mM Tris-HCl pH 7.8, 1 mM EDTA, 0.6 M NaCl)) was added by the automatic injector of the instrument.
In another embodiment, A549 or HT29 cells were transfected using the platinated transcription probes, and transcription levels were investigated by determining GLuc expression as measured by […] following addition of coelenterazine as a substrate for the exported enzyme. The emission intensities were normalized against unplatinated plasmids as a control. Transcription profiles were obtained by plotting normalized levels of GLuc expression against platination levels (Pt/plasmid ratio) at five different time points. […] An increase in D0 value at different time points represents restoration of transcription.

[3] = tested on: Gaussia luciferase expression in human cancer cells; settings: 8 hours; NoPt = 100; cell line not stated
Experimental: Vector Construction and Preparation. […] Preparation of Platinated Insertion Strand. […] The suspension was centrifuged. To a solution of 0.2 mM 16-mer oligonucleotide 5′-[…]*[…] The reaction mixture was incubated in the dark at 37° C. overnight. The reaction was stopped when the solution was frozen. […] After purification, the platinated DNA solution was dialyzed against H2O and lyophilized. […] The insertion strand was further analyzed for nucleotide composition by nuclease S1 digestion to confirm the platination site following a protocol published previously (Table 13) (e.g., see J Am Chem Soc 2007, 129, 6370-6371). The platinated and unplatinated DNA strands (40 μM) were phosphorylated by T4 PNK (0.67 U/μL) at 37° C. for 3 h, followed by a phenol/chloroform/isoamyl alcohol extraction to remove the enzyme. The phosphorylated DNA strands were ethanol precipitated and stored in −80° C. at a concentration of 100 pmol/μL.
Briefly, a 600 μg quantity of pGLuc8temG plasmid was digested with 30 U Nt.BbvCI at 37° C. for 1 h. […] A 120 μg quantity of the gapped plasmid was annealed with 100 equiv of the insertion strand in a buffer of 10 mM Tris-HCl, 2 mM MgCl2, 0.4 M NaCl, pH 7.4 from 90° C. to 4° C. at −1° C./min in a thermocycler. […] The plasmids were quantitated by a Quant-iT™ PicoGreen® dsDNA Kit from Invitrogen (Carlsbad, Calif.), and stored in −80° C. in TE buffer (10 mM Tris-HCl, 2 mM EDTA, pH 7.4). […]

5′-dGMP = settings: buffer, pH 7.4

Molecule | ratio of IC50 values in healthy MRC5 cells to those in cancerous A549 cells [1] | transcription level (normalized against unplatinated plasmid) ([2]; HT29, 12 h, Pt/DNA ratio of […] for phenanthriplatin) | D0 (Pt lesions per plasmid required to reduce transcription levels to 37% of control) ([2]; HT29, 24 h after transfection) | D0 (Pt lesions per plasmid required to reduce transcription levels to 37% of control) ([2]; HT29, 36 h after transfection) | Transcription (normalized against unplatinated control) [3] | half-life, reaction with 5′-dGMP (5′-dGMP)
cis-[Pt(NH3)2(phenanthridine)Cl]NO3 [phenanthriplatin] | 3.9 | 28.1% | 21.1 Pt/plasmid | 21.9 Pt/plasmid | 24 | –
N.N.O=[N+]([O-])[O-].[Cl][Pt+].c1ccncc1 [pyriplatin, cis-[Pt(NH3)2(pyridine)Cl]NO3] | – | – | – | – | – | 2.4 h
